Measured values from publication PMC7043210, “Differential activation of G protein‐mediated signaling by synthetic cannabinoid receptor agonists” (Pharmacology Research & Perspectives, 2020).

Chains of the proteins cited; added tags and fusions are not shown.
UniProt P21554, whole entry: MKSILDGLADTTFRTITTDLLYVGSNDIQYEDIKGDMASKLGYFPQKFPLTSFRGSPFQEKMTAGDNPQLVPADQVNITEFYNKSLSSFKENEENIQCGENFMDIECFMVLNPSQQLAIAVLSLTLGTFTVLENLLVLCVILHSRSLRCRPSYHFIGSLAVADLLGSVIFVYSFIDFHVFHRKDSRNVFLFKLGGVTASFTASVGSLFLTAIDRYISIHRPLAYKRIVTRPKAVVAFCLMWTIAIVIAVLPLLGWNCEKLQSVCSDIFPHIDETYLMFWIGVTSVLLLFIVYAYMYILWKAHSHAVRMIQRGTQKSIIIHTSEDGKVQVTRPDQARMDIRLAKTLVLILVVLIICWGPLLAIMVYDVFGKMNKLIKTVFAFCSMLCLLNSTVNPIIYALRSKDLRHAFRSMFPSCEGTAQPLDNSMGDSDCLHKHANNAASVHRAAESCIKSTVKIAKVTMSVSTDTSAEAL

Target: human CB1 receptor (Homo sapiens, UniProt P21554)
Experiment: Inhibition of FSK-induced cAMP accumulation (Gαi/o, non-PTX treated), CAMYEL BRET biosensor, HEK-CB1 cells
Assay type: cell-based
Settings: FSK 100%, vehicle 0%, three parameter fit, ± SEM

In the case of `CCCCCn1cc(C(=O)c2cccc3ccccc23)c2ccccc21` [JWH‐018], the “G i (‐PTX) E max (% FSK)” value is reported as 64 % FSK and 64 ± 3 % FSK.

“And” between values parts separate entries of the source, which are not always exact repeats. Identical values can stand only once.
